For three compounds, IC50 results are on record in ChEMBL document CHEMBL3112561, “Small molecule disruptors of the glucokinase-glucokinase regulatory protein interaction: 2. Leveraging structure-based drug design to identify analogues with improved pharmacokinetic profiles” (J Med Chem, 2014).

The target in the assay is T1, Glucokinase regulatory protein (Homo sapiens, UniProt Q14397).
T1 sequence (Q14397 whole entry): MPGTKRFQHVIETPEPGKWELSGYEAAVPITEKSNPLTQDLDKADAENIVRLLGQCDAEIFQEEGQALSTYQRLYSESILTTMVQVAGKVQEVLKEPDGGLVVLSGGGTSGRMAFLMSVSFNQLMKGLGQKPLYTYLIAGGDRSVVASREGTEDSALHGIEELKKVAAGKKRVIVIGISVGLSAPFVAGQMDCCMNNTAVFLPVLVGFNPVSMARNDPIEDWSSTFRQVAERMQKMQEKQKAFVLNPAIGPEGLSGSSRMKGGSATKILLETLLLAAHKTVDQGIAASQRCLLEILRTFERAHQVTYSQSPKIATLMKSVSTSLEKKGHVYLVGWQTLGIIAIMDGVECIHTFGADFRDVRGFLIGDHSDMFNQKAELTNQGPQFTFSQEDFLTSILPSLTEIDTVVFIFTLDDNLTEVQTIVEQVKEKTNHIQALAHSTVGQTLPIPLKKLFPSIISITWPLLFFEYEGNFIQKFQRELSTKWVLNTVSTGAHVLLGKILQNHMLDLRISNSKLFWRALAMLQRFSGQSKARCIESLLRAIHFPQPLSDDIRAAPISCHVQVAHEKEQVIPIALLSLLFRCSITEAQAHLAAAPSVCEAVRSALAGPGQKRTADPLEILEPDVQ
Briefly: Inhibition of fluorescein-labeled human GK interaction with biotin-labeled human GKRP incubated for 20 mins prior to addition of fluorescein-labeled GK measured after 2 to 4 hrs by Alpha Screen assay.
Regarding `Nc1ccccc1S(=O)(=O)N1CCN(c2ccc(C(O)(C(F)(F)F)C(F)(F)F)cc2)CC1`, half-maximal inhibition (IC50) required 445 nM.
For `Nc1ccc(S(=O)(=O)N2CCN(c3ccc(C(O)(C(F)(F)F)C(F)(F)F)cc3)CC2)cn1` the value was 87 nM.
The value for `Nc1ncc(S(=O)(=O)N2CCN(c3ccc(C(O)(C(F)(F)F)C(F)(F)F)cc3)CC2)cn1` was 316 nM.
